Test results taken from patent publication US20040197222A1 (priority 2002, published 2004).

System: 10^5 of B. stearothermophilus ATCC # 7953
Assay: Trailer field fumigation, combined-species spore strips incubated for B. stearothermophilus
Format: cell-based, Bacillus stearothermophilus
Conditions: 303.7 oz/1,000 ft^3, 48 hours

Measured: incubation result 10^5 B. stear.

CBr [methyl bromide]
pass: trailer loc. 1-Floor vent, inside ducting | trailer loc. 2-Under carpet fabric | trailer loc. 4-Wall plug outlet, covered | trailer loc. 5-Wall surface, in closed folder | trailer loc. 20-Recliner chair, under cover fabric
